Data taken from PMC8163823.

The chains behind the UniProt entries cited, without tags or fusion partners.
UniProt Q96GD4, whole entry: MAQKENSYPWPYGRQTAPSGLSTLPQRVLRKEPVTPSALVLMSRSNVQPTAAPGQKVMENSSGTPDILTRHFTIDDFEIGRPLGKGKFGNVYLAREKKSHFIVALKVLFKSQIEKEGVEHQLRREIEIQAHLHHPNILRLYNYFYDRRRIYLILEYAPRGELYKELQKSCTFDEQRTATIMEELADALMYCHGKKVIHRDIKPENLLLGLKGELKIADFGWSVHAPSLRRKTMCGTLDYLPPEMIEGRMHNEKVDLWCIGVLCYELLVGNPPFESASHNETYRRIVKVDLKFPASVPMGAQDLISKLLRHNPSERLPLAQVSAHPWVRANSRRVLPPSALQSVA

Assays:
[1] = target: AURKA (Homo sapiens, UniProt O14965); assay: Z'-LYTE kinase assay (SelectScreen), ATP at Km ([…]); settings: read-out: IC50 (nM) AURKA AURKB
[2] = target: AURKB (Homo sapiens, UniProt Q96GD4); assay: as above; settings: read-out: IC50 (nM) AURKA AURKB

IC50 [1] | IC50 [2] | SMILES
6.17 nM | 95.4 nM | COc1cc(Nc2ncc3c(n2)-c2ccc(Cl)cc2C(c2c(F)cccc2OC)=NC3)ccc1C(=O)NCCOCCOCCOCCOCC(=O)N[C@H](C(=O)N1C[C@H](O)C[C@H]1C(=O)NCc1ccc(-c2scnc2C)cc1)C(C)(C)C
3.58 nM | 77.2 nM | COc1cc(Nc2ncc3c(n2)-c2ccc(Cl)cc2C(c2c(F)cccc2OC)=NC3)ccc1C(=O)NCCOCCOCCOCCOCCNc1cccc2c1C(=O)N(C1CCC(=O)NC1=O)C2=O (stereo not drawn)
4.78 nM | 113 nM | COc1cc(Nc2ncc3c(n2)-c2ccc(Cl)cc2C(c2c(F)cccc2OC)=NC3)ccc1C(=O)NCCOCCOCCOCCOCCOCCOCCNc1cccc2c1C(=O)N(C1CCC(=O)NC1=O)C2=O (stereo not drawn)
